Holding throughout (format): in vivo, mouse
The test system of experiment [1] is human pancreatic cancer cells (PANC-1). Description: PANC-1 implanted into pancreas, lethal model, survival with gemcitabine combination (Table 1). The settings on record: female SCID mice, compound A1 100 mg/kg oral once daily from day 7, GEM 100 mg/kg i.v. days 7, 10, 14. As to the method: A small piece (70 to 80 mg) of human pancreatic cancer cells (PANC-1) was implanted into the pancreas of female SCID mice (15 mice for each group). In a group of mice, from seven days after the implantation, compound A1 was orally administered at a dose of 100 mg/kg once daily. In another group of mice, on seven, 10, and 14 days after implantation, gemcitabine hydrochloride (Gemzar Injection®) was intravenously administered at a dose of 100 mg/kg. The prolongation of survival time by compound A1 was evaluated because this model using PANC-1 was lethal model.

The test system is the same in experiment [2]. Put plainly: PANC-1 implanted into pancreas, lethal model, survival rate. The settings on record: compound A1 100 mg/kg oral once daily from 7 days after implantation; 40 days after administration start (46 days after implantation); female SCID mice (control 46.7%). As for the experimental part:
A small piece (70 to 80 mg) of human pancreatic cancer cells (PANC-1) was implanted into the pancreas of female SCID mice (15 mice for each group). In a group of mice, from seven days after implantation, compound A1 was orally administered at a dose of 100 mg/kg once daily. In another group of mice, on seven, 10, and 14 days after the implantation, gemcitabine hydrochloride (Gemzar Injection®) as a positive control was intravenously injected at a dose of 100 mg/kg. The prolongation of survival time by compound A1 was evaluated because this model using PANC-1 was lethal model.

The subject of experiment [3] is human gastric cancer cells (MGLVA1). Description: MGLVA1 intraperitoneal lethal model, survival. The settings on record: 30 mg/kg oral once daily; day 6 after the administration start; female SCID mice (control 6.7%). As for the experimental part:
5×10^5 cells of human gastric cancer cells (MGLVA1) were intraperitoneally injected into female SCID mice. After implantation, compound A1 was orally administered to mice at doses of 3 mg/kg and 30 mg/kg once daily. The prolongation of survival time by compound A1 was evaluated because this model using MGLVA1 was lethal model.

For the substance “calcium (R)-(−)-3-[3-(1-tert-butylcarbonylmethyl-2-oxo-5-cyclohexyl-1,3,4,5-tetrahydro-2H-1,5-benzodiazepin-3-yl)ureido]benzoate [compound A1]”, the “Survival rate at 60 days after initiation of administration (66 days after implantation)” value in experiment [1] (alone or combined (control 0)) worked out at 6.7%. For the same substance, the Median survival time in experiment [1] (alone or combined (control 39)) is 51 days. Further, the “Survival rate at 50 days after initiation of administration (56 days after implantation)” value in experiment [1] (alone or combined (control 40)) is given as 53.3%. Besides, in experiment [1] (alone or combined (control 43)), the Average survival time was found to be 49.5 days. Moreover, the “Days of death of the last individual” value in experiment [1] (alone or combined (control 56)) was found to be 61 days. In addition, the values for the Survival rate in experiment [2] and in experiment [3] were 86.7% and 46.7%, respectively.
